Measured values: patent publication US10669272B2, “Substituted naphthyridinone compounds useful as T cell activators” (BRISTOL-MYERS SQUIBB COMPANY, priority 2018, dated 2020)

Chains of the proteins cited; added tags and fusions are not shown. A line that says so, or that is headed by a name, gives the form on record, which may keep a tag or linker.
UniProt P23743, with tags, fused parts or gaps: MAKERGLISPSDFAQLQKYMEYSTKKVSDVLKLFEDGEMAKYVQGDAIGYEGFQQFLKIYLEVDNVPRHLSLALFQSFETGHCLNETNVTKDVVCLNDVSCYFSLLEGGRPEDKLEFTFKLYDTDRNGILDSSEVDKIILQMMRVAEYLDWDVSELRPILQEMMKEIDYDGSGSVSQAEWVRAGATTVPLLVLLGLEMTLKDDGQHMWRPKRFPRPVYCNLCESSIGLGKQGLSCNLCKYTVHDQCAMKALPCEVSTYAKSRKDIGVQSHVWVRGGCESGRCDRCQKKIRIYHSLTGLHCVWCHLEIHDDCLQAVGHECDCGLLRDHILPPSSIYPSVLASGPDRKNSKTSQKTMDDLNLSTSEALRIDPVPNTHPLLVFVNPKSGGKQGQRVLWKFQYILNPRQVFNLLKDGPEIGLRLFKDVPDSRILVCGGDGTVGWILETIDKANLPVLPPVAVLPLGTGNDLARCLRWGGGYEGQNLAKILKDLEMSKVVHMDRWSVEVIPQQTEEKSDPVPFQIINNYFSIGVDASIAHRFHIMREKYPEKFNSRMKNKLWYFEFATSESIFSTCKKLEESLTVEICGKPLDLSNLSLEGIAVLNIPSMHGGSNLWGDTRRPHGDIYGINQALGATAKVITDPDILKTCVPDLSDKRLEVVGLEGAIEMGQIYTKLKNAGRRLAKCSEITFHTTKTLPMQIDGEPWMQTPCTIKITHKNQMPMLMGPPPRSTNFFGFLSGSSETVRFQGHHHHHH

Biological target: T1, human DGKα (Homo sapiens, UniProt P23743)
T1 construct: TVMV protease cleavage site (C); Hexa-His (C); made in house; host or cells: Sf9 insect cells (baculovirus, Bac-to-Bac)
Test: DGKα LIPGLO assay (extruded liposome substrate), in vitro DGK inhibition
Type: biochemical
Conditions: DGKa LIPGLO IC50, liposome (LIPGLO) assay

CC[C@H]1CN(C(c2ccc(F)cc2)c2ccc(F)cc2)CCN1c1cc(=O)n(C)c2ccc(C#N)nc12 [Example 127, (S)-8-(4-(bis(4-fluorophenyl)methyl)-2-ethylpiperazin-1-yl)-5-methyl-6-oxo-5,6-dihydro-1,5-naphthyridine-2-carbonitrile]
IC50: 1500 nM
